In ChEMBL document CHEMBL1144455, “A small molecule-kinase interaction map for clinical kinase inhibitors” (Nat Biotechnol, 2005) one finds Kd data, which are given here for two compounds.

By UniProt entry, the sequences of proteins in these tests, tags left out.
UniProt O43353, whole entry: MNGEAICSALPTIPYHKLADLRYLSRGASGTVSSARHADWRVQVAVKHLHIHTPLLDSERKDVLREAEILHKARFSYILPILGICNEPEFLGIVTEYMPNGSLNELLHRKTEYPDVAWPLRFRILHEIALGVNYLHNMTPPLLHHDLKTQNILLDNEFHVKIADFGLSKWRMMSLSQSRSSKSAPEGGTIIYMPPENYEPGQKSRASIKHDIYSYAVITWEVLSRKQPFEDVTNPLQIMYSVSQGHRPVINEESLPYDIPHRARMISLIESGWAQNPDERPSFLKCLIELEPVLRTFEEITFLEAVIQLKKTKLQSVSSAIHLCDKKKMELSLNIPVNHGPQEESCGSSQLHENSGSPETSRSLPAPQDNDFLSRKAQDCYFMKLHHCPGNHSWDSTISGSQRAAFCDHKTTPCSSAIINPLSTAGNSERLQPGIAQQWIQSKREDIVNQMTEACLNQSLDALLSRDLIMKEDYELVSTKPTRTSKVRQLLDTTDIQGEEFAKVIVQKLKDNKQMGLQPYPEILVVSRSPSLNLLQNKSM

Experiment [1] concerns the target T1, Serine/threonine-protein kinase 17A (Homo sapiens, UniProt Q9UEE5).
T1 sequence (Q9UEE5 whole entry): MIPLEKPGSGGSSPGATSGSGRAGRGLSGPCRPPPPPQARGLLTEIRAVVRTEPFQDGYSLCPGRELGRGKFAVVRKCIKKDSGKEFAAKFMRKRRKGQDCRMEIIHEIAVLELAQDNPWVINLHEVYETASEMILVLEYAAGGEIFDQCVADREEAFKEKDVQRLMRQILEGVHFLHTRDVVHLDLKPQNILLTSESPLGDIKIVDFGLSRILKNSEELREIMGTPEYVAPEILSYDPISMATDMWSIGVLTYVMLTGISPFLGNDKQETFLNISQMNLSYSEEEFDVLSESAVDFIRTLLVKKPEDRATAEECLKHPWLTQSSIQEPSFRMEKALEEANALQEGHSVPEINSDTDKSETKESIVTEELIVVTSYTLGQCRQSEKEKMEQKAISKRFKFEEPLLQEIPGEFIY

In experiment [2] the target is Receptor-interacting serine/threonine-protein kinase 2 (Homo sapiens, UniProt O43353).

The structures appear in SMILES notation.

The term Kd denotes the equilibrium constant for the complex coming apart. High values mean a looser complex, low ones a tighter complex.

`CCOc1cc2ncc(C#N)c(Nc3ccc(F)c(Cl)c3)c2cc1NC(=O)/C=C/CN(C)C` [PELITINIB]: binding in experiment [1] was put at a Kd of 57 nM.
In the case of `Oc1ccc(-c2nc(-c3ccncc3)c(-c3ccc(F)cc3)[nH]2)cc1` [SB-202190], binding in experiment [2] was put at a Kd of 350 nM.
